The list shows a part of the results, in another mix than the full data. The source made the active and inactive calls.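 How the source made its calls: active means inhibition exceeding the mean over every tested compound plus 3 SD (cut at about 30% in these data); inactive means the rest.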

Amino acid sequences for entries named in this document (tags omitted). A change or cut given only in a name is not applied to a line headed by its entry.
UniProt Q8VD66: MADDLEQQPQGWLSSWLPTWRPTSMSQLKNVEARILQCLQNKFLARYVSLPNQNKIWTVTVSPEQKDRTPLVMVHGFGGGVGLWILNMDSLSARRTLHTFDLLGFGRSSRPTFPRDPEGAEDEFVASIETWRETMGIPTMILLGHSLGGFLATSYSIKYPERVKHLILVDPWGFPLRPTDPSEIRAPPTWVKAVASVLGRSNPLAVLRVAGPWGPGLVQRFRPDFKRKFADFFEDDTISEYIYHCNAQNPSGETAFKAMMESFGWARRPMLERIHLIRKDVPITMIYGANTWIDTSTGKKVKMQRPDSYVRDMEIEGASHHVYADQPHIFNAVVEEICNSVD

For the test, the target named is (Lyso)-N-acylphosphatidylethanolamine lipase (Mus musculus) (UniProt Q8VD66). Nature of the test: ABHD4 inhibitors, primary screen, biochemical, fluorescence polarization, mouse (AID 720543).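 Further: 0% = plate median of compound wells and 100% = S159A mutant with DMSO.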 Conditions: purified mABHD4, FP-Rh probe fluorescence polarization; at 8.92 µM; active compounds read high. A digest of the protocol:
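System: mouse ABHD4 enzyme, wild type / Medium: HEPES pH 7.0, NaCl, Pluronic buffer / Reagent: FP-Rh activity-based fluorescent probe / Control set: S159A mutant high control, sample median low control / Detection: fluorescence polarization with parallel and perpendicular emission, 525/598 nm / Schedule: 45 min + 60 min at 25 °C / Compound dosing: 8.92 µM, single dose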
Background: Fluorescence polarisation rises when a labelled molecule tumbles more slowly, as on binding a larger partner.
The inhibition is the change of the read-out against control, counted positive when it falls. `O=C(Nc1cc([As](=O)(O)O)ccc1O)c1ccccc1`: the inhibition was inactive: 4.76%.
For `O=P1(N(CCCl)CCCl)OCCCS1` (configuration not stated), the inhibition was inactive: 2.17%.
For `COC(=O)C1(C)COP(=O)(Nc2ccccc2)OC1` (configuration not stated), the inhibition is inactive: 5.08%.
`O=[N+]([O-])c1cccc(NC2=NCC(CBr)S2)c1` (configuration not stated): the inhibition was inactive: -4.95%.
Next, `O=C(O)CNc1ccc([As](=O)(O)O)cc1`: inactive: 3.46%; `CC(C)(C)C(=O)NC(Sc1ccncn1)C(Cl)(Cl)Cl` (configuration not stated): inactive: -3.96%; `O=[N+]([O-])c1ncn(CCn2ncnc2[N+](=O)[O-])n1`: inactive: 0.58%.
Turning to `CC(=O)N1C2C3N(C(C)=O)C1C1N(C(C)=O)C(C(N1C(C)=O)N3C(C)=O)N2C(C)=O`, the inhibition was inactive: 1.87%.
Take `O=[N+]([O-])c1cccc2n[nH]nc12`: the inhibition is inactive: -4.04%.
Take `O=[N+]([O-])c1cc([N+](=O)[O-])c(CCNc2ccccc2)c([N+](=O)[O-])c1`: the inhibition is active: 66.8%.
On to `CCc1nc2c(n1)c1c(non1O)c1c2no[n+]1[O-]`, for which the inhibition was inactive: 3.24%.
Consider `Cc1ccc(NP(=O)(Oc2ccccc2)Oc2ccccc2)nc1`, for which the inhibition is inactive: 0.48%.
Take `COc1ccc(C2=NCC(CBr)S2)cc1` (configuration not stated): the inhibition was inactive: -3.08%.
With `CN(C)C(=O)OCCc1n(C)cc[n+]1C`, the inhibition is inactive: -1.76%.
Turning to `CC(C)c1nc(Nc2ccccc2)n(P(=O)(N(C)C)N(C)C)n1`, the inhibition was inactive: -7.59%.
Regarding `CC(C)=N/N=C(\N)N[N+](=O)[O-]`, the inhibition is inactive: -0.71%.
As for `CC1CCN(C(=O)Oc2c(Cl)cc(Cl)c3cccnc23)CC1`, the inhibition was inactive: 20%.
On to `c1cc(-c2nn[nH]n2)ccc1-c1nn[nH]n1`, for which the inhibition is inactive: 8%.
Consider `C[N+]1=C2C=CC=CC=C2SC12C([N+](=O)[O-])=CC([N+](=O)[O-])=C[C-]2[N+](=O)[O-]` (configuration not stated), for which the inhibition is active: 41.7%.
Next, `Nc1ccc([As](=O)(O)c2ccc(N)cc2)cc1`: inactive: -3.79%; `CCN(/C(=N/P(=O)(N1CCOCC1)N1CCOCC1)N1CCOCC1)c1ccc(OC)cc1`: inactive: -4.7%; `Cc1ccc(OP(=O)(Nc2nccs2)Oc2ccc(C)cc2)cc1`: inactive: 1.35%.
As for `COc1ccccc1OP(=O)(Nc1ccc(C)cn1)Oc1ccccc1OC`, the inhibition is inactive: -2.37%.
Regarding `CN1CCCC(OC(=O)C(c2ccccc2)c2ccccc2)C1` (configuration not stated), the inhibition was inactive: 10.9%.
The same measure for `Clc1ccc(Cl)c(NC2=NCC(CBr)S2)c1` (configuration not stated): inactive: 6.67%; for `NC(=O)c1cc([N+](=O)[O-])cc([N+](=O)[O-])c1N`: inactive: 1.81%.
Next, `Cc1ccc(N/C(=N/P(=O)(N2CCOCC2)N2CCOCC2)N2CCOCC2)cc1`: inactive: 2.46%; `CN(C(=O)Cc1ccc(Cl)c(Cl)c1)[C@H]1CCCC[C@H]1N1CCCC1`: inactive: 0.9%; `Nc1cc(N)c2nonc2c1[N+](=O)[O-]`: inactive: 0.2%.
As for `CC(C)CC(=O)NC(Sc1ccc(Cl)cc1)C(Cl)(Cl)Cl` (configuration not stated), the inhibition is inactive: -2.75%.
Next, `O=C(NC(Sc1ccncn1)C(Cl)(Cl)Cl)c1ccccc1` (configuration not stated): inactive: 5.46%.
As for `Oc1ccccc1CNc1ccccn1`, the inhibition is inactive: -0.62%.
For the compound `CN(C(=O)Cc1ccc(Cl)c(Cl)c1)[C@H]1CCCC[C@@H]1N1CCCC1`, the inhibition is inactive: -7.1%.
Take `Cc1ccc(NP(=O)(Oc2ccccc2F)Oc2ccccc2F)nc1`: the inhibition is inactive: 4.69%.
Next, `Cc1cc(SC(NC(=O)c2ccc(F)cc2)C(Cl)(Cl)Cl)ncn1` (configuration not stated): inactive: 6.56%; `CCOP(=O)(Nc1ccccc1)OCC`: inactive: -0.38%.
For the compound `CCn1c(=O)n(C2CCN(CC3CCCCCCC3)C[C@H]2CO)c2ccccc21` (some centres not stated), the inhibition was inactive: 3.39%.
For `CCCC1OP(N)(=O)OCC1CC` (configuration not stated), the inhibition is inactive: -4.42%.
As to `CC(=O)Nc1ccc([As](=O)(O)O)cc1`, the inhibition was inactive: 0.41%.
As to `O=C(O)c1ccccc1[As](=O)(O)O`, the inhibition is inactive: 5.75%.
With `O=P(Nc1nc2ccc(Cl)cc2s1)(c1ccccc1)c1ccccc1`, the inhibition was inactive: -13.7%.
For the compound `CN(C)P(=O)(N(C)C)n1c(Nc2ccccc2)nnc1-c1ccccc1`, the inhibition is inactive: -7.72%.
`CCN(N=Nc1nonc1N)c1nonc1N`: the inhibition is inactive: 5.97%.
On to `CN(C(=O)Cc1ccccc1)C1CC[C@@]2(CCCO2)C[C@@H]1N1CCCC1` (some centres not stated), for which the inhibition was inactive: 1.88%.
Take `Nc1cccc2ccc([As](=O)(O)O)cc12`: the inhibition is inactive: 21.2%.
Next, `O=P1(N(CCCl)CCCl)OCCC2CCCCN21` (configuration not stated): inactive: -6.34%; `O=C(NC1CCS(=O)(=O)C1)NP(=S)(Oc1ccccc1)Oc1ccccc1` (configuration not stated): inactive: -3.49%; `CCNC(=S)/N=C(\N)N[N+](=O)[O-]`: inactive: -0.7%.
As to `Cc1ccc(NP(=O)(Oc2cccc(C)c2)Oc2cccc(C)c2)nc1`, the inhibition was inactive: 1.77%.
Next, `c1ccc(-c2nn[nH]n2)c(-c2nn[nH]n2)c1`: inactive: -3.71%; `O=c1c2cc([N+](=O)[O-])ccc2[nH]c2c([N+](=O)[O-])cc([N+](=O)[O-])cc12`: inactive: 12.9%; `CN(C)C(=O)Oc1noc2ccccc12`: inactive: -5.3%.
Next, `CC(NC(=O)COC(=O)C(O)(c1ccccc1)c1ccccc1)c1ccccc1` (configuration not stated): inactive: 0.03%; `Cc1ccccc1OP(=O)(Nc1ccccn1)Oc1ccccc1C`: inactive: -4.81%; `Cc1ccc(OP(=O)(Nc2ccccn2)Oc2ccc(C)cc2)cc1`: inactive: -5.55%.
Turning to `CC(=O)NC(SC(=S)N(CC(C)C)CC(C)C)C(Cl)(Cl)Cl` (configuration not stated), the inhibition is inactive: 7.44%.
For the compound `COC(=O)c1cc2c(s1)N=C(c1ccccc1)N(C)P2(=O)N1CCOCC1` (configuration not stated), the inhibition is inactive: 6.27%.
Next, `CCC(=O)N1C2C3N(C(=O)CC)C1C1N(C(=O)CC)C(C(N1C(=O)CC)N3C(=O)CC)N2C(=O)CC`: inactive: -1.39%; `O=C(OC1CN2CCC1CC2)c1ccccc1` (configuration not stated): inactive: 1.87%; `CCc1cc(O)c([N+](=O)[O-])c(C)c1[N+](=O)[O-]`: inactive: -5.46%.
With `CC(C)(C)C(=O)NC(Sc1ccccc1)C(Cl)(Cl)Cl` (configuration not stated), the inhibition was inactive: -2.16%.
For `CCOc1ccc(C2=NCC(CBr)S2)cc1` (configuration not stated), the inhibition is inactive: 5.98%.
Consider `O=P1(Nc2nc3ccc(Cl)cc3s2)COc2ccccc2O1` (configuration not stated), for which the inhibition was inactive: 3.06%.
In the case of `CC(=O)Nc1ccc(Oc2c([N+](=O)[O-])cc([N+](=O)[O-])cc2[N+](=O)[O-])cc1`, the inhibition is inactive: 9.36%.
The same measure for `CC(=O)Nc1ccc([As](=O)(O)O)c(O)c1`: inactive: 6.58%; for `COC(=O)C1(C)COP(=O)(NCc2ccccc2)OC1` (configuration not stated): inactive: -3.55%; for `CC(=O)c1ccc(N2CC2c2ccncc2)cc1` (configuration not stated): inactive: -1.79%.
`N#C/C(=C\c1ccc(N(CCBr)CCBr)cc1)C(N)=O`: the inhibition was inactive: -1.55%.
With `C[C@H]1OP(=O)(Oc2ccccc2)C[C@@H]2O[C@@H]21` (some centres not stated), the inhibition was inactive: 1.53%.
Take `C[C@@H]1C=CCP(=O)(Oc2ccccc2)O1` (some centres not stated): the inhibition was inactive: -3.83%.
In the case of `Cc1ccccc1CN(C)C(=O)COC(=O)C(O)(c1ccccc1)c1ccccc1`, the inhibition is inactive: -11.7%.
For the compound `c1nnnn1CCn1cnnn1`, the inhibition is inactive: -0.42%.
As to `O=P(Nc1nccs1)(c1ccccc1)c1ccccc1`, the inhibition is inactive: 2.42%.
Turning to `CC(C)C(=O)NC(Sc1ccccc1)C(Cl)(Cl)Cl` (configuration not stated), the inhibition was inactive: 1.31%.
The same measure for `C[C@H]1OP(=O)(Oc2ccccc2)[C@H](O)[C@H](O)[C@H]1N=[N+]=[N-]` (some centres not stated): inactive: 1.68%; for `O=P(Nc1nc2ccccc2s1)(c1ccccc1)c1ccccc1`: inactive: -5.2%.
With `COc1ccc(N)c([N+](=O)[O-])c1[N+](=O)[O-]`, the inhibition was inactive: 4.51%.
Take `Nc1ccc(CCCCOc2ccccc2)cc1`: the inhibition is inactive: -7.43%.
For `CN(C)C1(CNC(=O)c2ccc(Cl)c(S(N)(=O)=O)c2)CCCCC1`, the inhibition is inactive: -1.84%.
Regarding `O=P(Nc1ccccn1)(c1ccc(Br)cc1)c1ccc(Br)cc1`, the inhibition is inactive: 4.65%.
As for `C(Cc1nn[nH]n1)Cc1nn[nH]n1`, the inhibition is inactive: 5.31%.
As for `Nc1ccc([As](=O)(O)c2ccc([N+](=O)[O-])cc2)cc1`, the inhibition is inactive: 0.57%.
As for `C/C(N)=N\P(=O)(OCc1ccccc1)OCc1ccccc1`, the inhibition was inactive: 0.15%.
For the compound `O=C(OC1CN2CCC1CC2)c1cccc(Cl)c1` (configuration not stated), the inhibition is inactive: 1.36%.
In the case of `O=[N+]([O-])c1ncn(CCn2cnc([N+](=O)[O-])n2)n1`, the inhibition was inactive: -0.66%.
Regarding `CC(=O)NC(SC(=S)N(C)C)C(Cl)(Cl)Cl` (configuration not stated), the inhibition was inactive: -2.49%.
The same measure for `O=[As](O)(c1ccccc1)c1ccc(O)cc1`: inactive: -1.18%; for `CCCC1OP(=O)(Nc2ccccc2)OCC1CC` (configuration not stated): inactive: 1.68%.
Turning to `O=C(/C=C/c1ccccc1)OC1CN2CCC1CC2` (configuration not stated), the inhibition was inactive: -1.32%.
Turning to `CN(C)C1(CNC(=O)c2ccc(S(C)(=O)=O)cc2)CCCCC1`, the inhibition was inactive: 2.28%.
With `Cc1ccc(C(=O)OC2CN3CCC2CC3)cc1` (configuration not stated), the inhibition is inactive: 2.96%.
As to `CC1CCC(C(C)C)C(OP(=O)(Nc2ccccn2)c2ccccc2)C1` (configuration not stated), the inhibition is inactive: -4.57%.
On to `Cc1nn(-c2ccccc2)c2c1P(=O)(N1CCOCC1)N(C)C(c1ccccc1)=N2` (configuration not stated), for which the inhibition was inactive: -1.13%.
Consider `O=[As](O)(c1cccs1)c1cccs1`, for which the inhibition was inactive: 2.43%.
`Cc1ccc(OCC(=O)OC2CN3CCC2CC3)cc1` (configuration not stated): the inhibition is inactive: 4.47%.
As for `NS(=O)(=O)c1cccc(NC(=O)COC(=O)C(O)(c2ccccc2)c2ccccc2)c1`, the inhibition is inactive: -1.43%.
Next, `O=P1(Nc2ccc(Br)cn2)COc2ccccc2OC1`: inactive: 3.04%; `Nc1cccc([As](=O)(O)c2ccccc2)c1`: inactive: 2.44%.
With `O=P1(Nc2ncccn2)COc2ccccc2OC1`, the inhibition is inactive: 3.5%.
For `Cc1ccc(S(=O)(=O)N(CCCN)CCCc2c(C)nc(N)[nH]c2=O)cc1`, the inhibition is inactive: -5.89%.
`CC(C)(C)C(=O)NC(Sc1ncccn1)C(Cl)(Cl)Cl` (configuration not stated): the inhibition was inactive: -0.36%.
For the compound `Clc1n[nH]nc1-c1nn[nH][15n]1`, the inhibition was inactive: 4.64%.

Source of the values: PubChem BioAssay AID720543 (The Scripps Research Institute Molecular Screening Center, 2013).
